Sequences of proteins named here, by UniProt entry; tags and fusion partners are left off.
UniProt O70526, whole entry, looked up: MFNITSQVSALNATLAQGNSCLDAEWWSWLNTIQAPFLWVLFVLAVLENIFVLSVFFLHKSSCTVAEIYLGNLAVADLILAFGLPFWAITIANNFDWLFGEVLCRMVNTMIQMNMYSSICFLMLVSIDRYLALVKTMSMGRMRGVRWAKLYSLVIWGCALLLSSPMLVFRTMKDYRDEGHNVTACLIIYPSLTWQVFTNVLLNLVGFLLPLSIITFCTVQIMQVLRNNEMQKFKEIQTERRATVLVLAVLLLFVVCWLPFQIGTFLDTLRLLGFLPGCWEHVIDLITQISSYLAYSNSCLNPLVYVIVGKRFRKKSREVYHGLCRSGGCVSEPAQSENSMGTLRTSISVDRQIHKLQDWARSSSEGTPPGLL
UniProt P35372, whole entry, looked up: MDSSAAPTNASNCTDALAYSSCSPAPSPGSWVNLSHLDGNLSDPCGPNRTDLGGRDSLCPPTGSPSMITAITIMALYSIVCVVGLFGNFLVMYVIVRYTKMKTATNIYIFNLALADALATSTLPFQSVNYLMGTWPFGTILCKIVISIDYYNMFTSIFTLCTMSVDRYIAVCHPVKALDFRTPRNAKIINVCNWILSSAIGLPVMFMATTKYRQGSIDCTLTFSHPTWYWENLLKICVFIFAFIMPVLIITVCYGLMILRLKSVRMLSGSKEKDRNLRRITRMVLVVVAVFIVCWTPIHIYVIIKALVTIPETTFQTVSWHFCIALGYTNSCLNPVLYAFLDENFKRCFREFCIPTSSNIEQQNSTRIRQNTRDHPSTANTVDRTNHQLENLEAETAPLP

In US5843900A (priority 1995, dated 1998):

How the values were obtained:
[1] = target: B2 receptor (Cavia porcellus, UniProt O70526); assay: B2 receptor antagonist activity on guinea pig ileum (inhibition of myotropic activity of bradykinin, pA2); settings: Schild pA2 against bradykinin; for BK2, pA2 (GPA): first part of Table I
[2] = target: human mu receptor (Homo sapiens, UniProt P35372); assay: Human Mu Receptor Binding (3H-DAMGO, human clone membranes); settings: 3H-DAMGO 5nM, CHO-K1 clone hmu5 membranes

Compound | BK2, pA2 (GPI) [1] | Mu Binding Human Clone [2] | BK2, pA2 (GPA) [1]
CN1CC[C@]23c4c5ccc(OCCCCCC(=O)NCCCC[C@H](NC(=O)[C@H](N)CCCNC(=N)N)C(=O)N6CCC[C@H]6C(=O)N6C[C@H](O)C[C@H]6C(=O)NCC(=O)N[C@@H](Cc6cccs6)C(=O)N[C@@H](CO)C(=O)N6Cc7ccccc7C[C@@H]6C(=O)N(CC(=O)N[C@@H](CCCNC(=N)N)C(=O)O)C6CCCCC6)c4O[C@H]2[C@@H](O)CC[C@H]3[C@H]1C5 | 7.3 | 6.1 | 
CN1CC[C@]23c4c5ccc(OCCCCCC(=O)N[C@H](CCCNC(=N)N)C(=O)N[C@@H](CCCNC(=N)N)C(=O)N6CCC[C@H]6C(=O)N6C[C@H](O)C[C@H]6C(=O)NCC(=O)N[C@@H](Cc6cccs6)C(=O)N[C@@H](CO)C(=O)N6Cc7ccccc7C[C@@H]6C(=O)N(CC(=O)N[C@@H](CCCNC(=N)N)C(=O)O)C6CCCCC6)c4O[C@H]2[C@@H](O)CC[C@H]3[C@H]1C5 |  |  | 8.5
CN1CC[C@]23c4c5ccc(OCCCCCC(=O)N[C@H](CCCNC(=N)N)C(=O)N[C@@H](CCCNC(=N)N)C(=O)N6CCC[C@H]6C(=O)N6C[C@H](O)C[C@H]6C(=O)NCC(=O)N[C@@H](Cc6cccs6)C(=O)N[C@@H](CO)C(=O)N[C@@H](C(=O)N6[C@H](C(=O)N[C@@H](CCCNC(=N)N)C(=O)O)C[C@@H]7CCCC[C@@H]76)C6Cc7ccccc7C6)c4O[C@H]2[C@@H](O)CC[C@H]3[C@H]1C5 |  |  | 8.1
CN1CC[C@]23c4c5ccc(OCCCCCCCCC(=O)N[C@H](CCCNC(=N)N)C(=O)N[C@@H](CCCNC(=N)N)C(=O)N6CCC[C@H]6C(=O)N6C[C@H](O)C[C@H]6C(=O)NCC(=O)N[C@@H](Cc6cccs6)C(=O)N[C@@H](CO)C(=O)N6Cc7ccccc7C[C@@H]6C(=O)N(CC(=O)N[C@@H](CCCNC(=N)N)C(=O)O)C6CCCCC6)c4O[C@H]2[C@@H](O)CC[C@H]3[C@H]1C5 |  |  | 8.2
CN1CC[C@]23c4c5ccc(OCCCCCCCCCCCC(=O)NCCCCCC(=O)N[C@H](CCCNC(=N)N)C(=O)N[C@@H](CCCNC(=N)N)C(=O)N6CCC[C@H]6C(=O)N6C[C@H](O)C[C@H]6C(=O)NCC(=O)N[C@@H](Cc6cccs6)C(=O)N[C@@H](CO)C(=O)N6Cc7ccccc7C[C@@H]6C(=O)N(CC(=O)N[C@@H](CCCNC(=N)N)C(=O)O)C6CCCCC6)c4O[C@H]2[C@@H](O)CC[C@H]3[C@H]1C5 |  | 7.9 | 8.4
CN1CC[C@]23c4c5ccc(OCCCCCCCCCCCC(=O)NCCCC[C@H](NC(=O)[C@H](Cc6cccs6)NC(=O)CNC(=O)[C@@H]6C[C@@H](O)CN6C(=O)[C@@H]6CCCN6C(=O)[C@H](CCCNC(=N)N)NC(=O)[C@H](N)CCCNC(=N)N)C(=O)N6Cc7ccccc7C[C@@H]6C(=O)N(CC(=O)N[C@@H](CCCNC(=N)N)C(=O)O)C6CCCCC6)c4O[C@H]2[C@@H](O)CC[C@H]3[C@H]1C5 | 7.2 | 7.6 | 
CN1CC[C@]23c4c5ccc(OCCCCCCCCCCCC(=O)N[C@H](CCCNC(=N)N)C(=O)N[C@@H](CCCNC(=N)N)C(=O)N6CCC[C@H]6C(=O)N6C[C@H](O)C[C@H]6C(=O)NCC(=O)N[C@@H](Cc6cccs6)C(=O)N[C@@H](CO)C(=O)N6Cc7ccccc7C[C@@H]6C(=O)N(CC(=O)N[C@@H](CCCNC(=N)N)C(=O)O)C6CCCCC6)c4O[C@H]2[C@@H](O)C=C[C@H]3[C@H]1C5 |  |  | 7.8
CN1CC[C@]23c4c5ccc(OCCCCCCCCCCCC(=O)N[C@H](CCCNC(=N)N)C(=O)N[C@@H](CCCNC(=N)N)C(=O)N6CCC[C@H]6C(=O)N6C[C@H](O)C[C@H]6C(=O)NCC(=O)N[C@@H](Cc6cccs6)C(=O)N[C@@H](CO)C(=O)N[C@@H](C(=O)N6[C@H](C(=O)N[C@@H](CCCNC(=N)N)C(=O)O)C[C@@H]7CCCC[C@@H]76)C6Cc7ccccc7C6)c4O[C@H]2[C@@H](O)CC[C@H]3[C@H]1C5 |  |  | 8.3
CN1CC[C@]23c4c5ccc(OCc6ccc(C(=O)NCCC(=O)N[C@H](CCCNC(=N)N)C(=O)N[C@@H](CCCNC(=N)N)C(=O)N7CCC[C@H]7C(=O)N7C[C@H](O)C[C@H]7C(=O)NCC(=O)N[C@@H](Cc7cccs7)C(=O)N[C@@H](CO)C(=O)N7Cc8ccccc8C[C@@H]7C(=O)N(CC(=O)N[C@@H](CCCNC(=N)N)C(=O)O)C7CCCCC7)cc6)c4O[C@H]2[C@@H](O)C=C[C@H]3[C@H]1C5 |  |  | 7.9
CN1CC[C@]23c4c5ccc(OCc6cccc(C(=O)NCCC(=O)N[C@H](CCCNC(=N)N)C(=O)N[C@@H](CCCNC(=N)N)C(=O)N7CCC[C@H]7C(=O)N7C[C@H](O)C[C@H]7C(=O)NCC(=O)N[C@@H](Cc7cccs7)C(=O)N[C@@H](CO)C(=O)N7Cc8ccccc8C[C@@H]7C(=O)N(CC(=O)N[C@@H](CCCNC(=N)N)C(=O)O)C7CCCCC7)c6)c4O[C@H]2[C@@H](O)C=C[C@H]3[C@H]1C5 |  | 6.1 | 8.5
CN1CC[C@]23c4c5ccc(OCCCCCCCCCCCC(=O)N[C@H](CCCNC(=N)N)C(=O)N[C@@H](CCCNC(=N)N)C(=O)N6CCC[C@H]6C(=O)N6C[C@H](O)C[C@H]6C(=O)NCC(=O)N[C@@H](Cc6cccs6)C(=O)N[C@@H](CO)C(=O)N6Cc7ccccc7C[C@@H]6C(=O)N(CC(=O)N[C@@H](CCCNC(=N)N)C(=O)O)C6CCCCC6)c4O[C@H]2[C@@H](O)CC[C@H]3[C@H]1C5 [CP 695] |  |  | 8.3
CN1CC[C@]23c4c5ccc(OCCCCCCCCCCCC(=O)NCCCC[C@H](NC(=O)[C@H](N)CCCNC(=N)N)C(=O)N6CCC[C@H]6C(=O)N6C[C@H](O)C[C@H]6C(=O)NCC(=O)N[C@@H](Cc6cccs6)C(=O)N[C@@H](CO)C(=O)N6Cc7ccccc7C[C@@H]6C(=O)N(CC(=O)N[C@@H](CCCNC(=N)N)C(=O)O)C6CCCCC6)c4O[C@H]2[C@@H](O)CC[C@H]3[C@H]1C5 [CP 723] | 7.3 | 7.6 | 
CN1CC[C@]23c4c5ccc(OCCCCCCCCCCCC(=O)NCCCC[C@H](NC(=O)CNC(=O)[C@@H]6C[C@@H](O)CN6C(=O)[C@@H]6CCCN6C(=O)[C@H](CCCNC(=N)N)NC(=O)[C@H](N)CCCNC(=N)N)C(=O)N[C@@H](CO)C(=O)N6Cc7ccccc7C[C@@H]6C(=O)N(CC(=O)N[C@@H](CCCNC(=N)N)C(=O)O)C6CCCCC6)c4O[C@H]2[C@@H](O)CC[C@H]3[C@H]1C5 [CP 831] | 7.2 |  | 
CN1CC[C@]23c4c5ccc(OCc6ccc(C(=O)NCCC(=O)Nc7ccc(CC(=O)N[C@H](CCCNC(=N)N)C(=O)N[C@@H](CCCNC(=N)N)C(=O)N8CCC[C@H]8C(=O)N8C[C@H](O)C[C@H]8C(=O)NCC(=O)N[C@@H](Cc8cccs8)C(=O)N[C@@H](CO)C(=O)N8Cc9ccccc9C[C@@H]8C(=O)N(CC(=O)N[C@@H](CCCNC(=N)N)C(=O)O)C8CCCCC8)cc7)cc6)c4O[C@H]2[C@@H](O)C=C[C@H]3[C@H]1C5 [CP 836] |  | 6.1 | 7.5
CN1CC[C@]23c4c5ccc(OCCCCCCCCCCCC(=O)NCCCC[C@H](NC(=O)[C@@H]6CCCN6C(=O)[C@H](CCCNC(=N)N)NC(=O)[C@H](N)CCCNC(=N)N)C(=O)NCC(=O)N[C@@H](Cc6cccs6)C(=O)N[C@@H](CO)C(=O)N6Cc7ccccc7C[C@@H]6C(=O)N(CC(=O)N[C@@H](CCCNC(=N)N)C(=O)O)C6CCCCC6)c4O[C@H]2[C@@H](O)CC[C@H]3[C@H]1C5 [CP 841] | < 6 | 7.9 | 
CN1CC[C@]23c4c5ccc(OCCCCCCCCCCCCCCC(=O)N[C@H](CCCNC(=N)N)C(=O)N[C@@H](CCCNC(=N)N)C(=O)N6CCC[C@H]6C(=O)N6C[C@H](O)C[C@H]6C(=O)NCC(=O)N[C@@H](Cc6cccs6)C(=O)N[C@@H](CO)C(=O)N6Cc7ccccc7C[C@@H]6C(=O)N(CC(=O)N[C@@H](CCCNC(=N)N)C(=O)O)C6CCCCC6)c4O[C@H]2[C@@H](O)CC[C@H]3[C@H]1C5 [CP 844] |  |  | 7.5
CN1CC[C@]23c4c5ccc(OCCCCCCCCCCCC(=O)NCCCC[C@H](NC(=O)[C@H](CCCNC(=N)N)NC(=O)[C@H](N)CCCNC(=N)N)C(=O)N6C[C@H](O)C[C@H]6C(=O)NCC(=O)N[C@@H](Cc6cccs6)C(=O)N[C@@H](CO)C(=O)N6Cc7ccccc7C[C@@H]6C(=O)N(CC(=O)N[C@@H](CCCNC(=N)N)C(=O)O)C6CCCCC6)c4O[C@H]2[C@@H](O)CC[C@H]3[C@H]1C5 [CP 851] | 2.6 | 8.1 | 
CN1CC[C@]23c4c5ccc(OCCCCCCCCCCCC(=O)NCCCC[C@H](NC(=O)[C@@H]6C[C@@H](O)CN6C(=O)[C@@H]6CCCN6C(=O)[C@H](CCCNC(=N)N)NC(=O)[C@H](N)CCCNC(=N)N)C(=O)N[C@@H](Cc6cccs6)C(=O)N[C@@H](CO)C(=O)N6Cc7ccccc7C[C@@H]6C(=O)N(CC(=O)N[C@@H](CCCNC(=N)N)C(=O)O)C6CCCCC6)c4O[C@H]2[C@@H](O)CC[C@H]3[C@H]1C5 [CP 853] | < 6 | 7.8 | 
CN1CC[C@]23c4c5ccc(OCc6cccc(C(=O)NCCC(=O)Nc7ccc(CC(=O)N[C@H](CCCNC(=N)N)C(=O)N[C@@H](CCCNC(=N)N)C(=O)N8CCC[C@H]8C(=O)N8C[C@H](O)C[C@H]8C(=O)NCC(=O)N[C@@H](Cc8cccs8)C(=O)N[C@@H](CO)C(=O)N8Cc9ccccc9C[C@@H]8C(=O)N(CC(=O)N[C@@H](CCCNC(=N)N)C(=O)O)C8CCCCC8)cc7)c6)c4O[C@H]2[C@@H](O)C=C[C@H]3[C@H]1C5 [CP 862] |  | 6.3 | 8.4
CN1CC[C@]23c4c5ccc(O)c4O[C@H]2[C@@H](OCCCCCCCCCCCC(=O)N[C@H](CCCNC(=N)N)C(=O)N[C@@H](CCCNC(=N)N)C(=O)N2CCC[C@H]2C(=O)N2C[C@H](O)C[C@H]2C(=O)NCC(=O)N[C@@H](Cc2cccs2)C(=O)N[C@@H](CO)C(=O)N2Cc4ccccc4C[C@@H]2C(=O)N(CC(=O)N[C@@H](CCCNC(=N)N)C(=O)O)C2CCCCC2)CC[C@H]3[C@H]1C5 [CP 896] |  | 8.3 | 8.7
